Assay results: US20240360179A1, “STAPLED PEPTIDES AND METHODS THEREOF” (FOG PHARMACEUTICALS, INC., priority 2021, published 2024)

Amino acid sequences for entries named in this document (tags omitted).
UniProt P35222, whole entry: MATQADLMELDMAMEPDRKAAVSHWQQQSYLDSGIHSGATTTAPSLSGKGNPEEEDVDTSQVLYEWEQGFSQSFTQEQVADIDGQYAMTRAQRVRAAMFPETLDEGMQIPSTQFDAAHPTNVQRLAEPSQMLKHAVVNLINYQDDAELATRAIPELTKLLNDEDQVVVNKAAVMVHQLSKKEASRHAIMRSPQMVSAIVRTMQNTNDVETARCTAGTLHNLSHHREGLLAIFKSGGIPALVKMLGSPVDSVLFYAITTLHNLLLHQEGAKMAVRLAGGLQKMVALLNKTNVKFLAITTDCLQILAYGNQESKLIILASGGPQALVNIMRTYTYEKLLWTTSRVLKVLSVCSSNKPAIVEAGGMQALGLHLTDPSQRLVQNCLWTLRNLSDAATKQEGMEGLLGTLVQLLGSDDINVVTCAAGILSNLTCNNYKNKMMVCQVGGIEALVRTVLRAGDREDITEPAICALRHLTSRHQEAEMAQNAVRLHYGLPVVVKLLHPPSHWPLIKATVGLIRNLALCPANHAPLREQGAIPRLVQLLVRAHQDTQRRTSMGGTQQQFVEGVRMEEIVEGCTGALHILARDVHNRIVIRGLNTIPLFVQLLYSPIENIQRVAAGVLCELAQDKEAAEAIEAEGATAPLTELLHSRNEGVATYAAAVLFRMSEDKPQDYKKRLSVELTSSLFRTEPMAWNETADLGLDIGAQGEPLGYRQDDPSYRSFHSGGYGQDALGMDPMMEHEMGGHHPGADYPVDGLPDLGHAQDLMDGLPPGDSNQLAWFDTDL

Legend:
[1] = target: T1, full-length B-Catenin (Uniprot ID P35222) (Homo sapiens, UniProt P35222); assay: biochemical; assay type: binding; details: beta-Catenin FP IC50 (nM), competition fluorescence polarization
T1 construct: 10 nM full-length B-Catenin (Uniprot ID P35222)

[2] = target: beta-catenin/TCF4 interaction (Homo sapiens, UniProt P35222); assay: cell-based; parameters: host or cells: HEK293; details: NanoBRET Abs IC50 (uM)

IC50 [1] | IC50 [2] | Compound
< 50 nM | 3 to 10 µM | CC(=O)N1CCC[C@]12CC=CCCCC1(CCCC=CCCCOC(=O)N3CC[C@@]4(C3)NC(=O)[C@H](CCCCNC(=O)CC[C@@H](C(=O)N[C@@H](C)C(N)=O)NC(=O)[C@H](Cc3csc5ccccc35)NC(=O)[C@H](Cc3ccccc3C(F)(F)F)NC4=O)NC(=O)[C@H](Cc3ccccc3)NC(=O)[C@H](C)NC(=O)C(C)(C)NC(=O)[C@H](CC(=O)O)NC(=O)[C@H](CC(=O)O)NC1=O)NC(=O)[C@H](CC(C)(C)C)NC(=O)[C@H](CC(=O)O)NC2=O (relative stereo) [I-199, Ac-PL3-Asp-Npg-B5-Asp-Asp-Aib-Ala-Phe-Lys*3-PyrS2-2F3MeF-BztA-GlnR*3-Ala-NH2]
50 to 200 nM | > 10 µM | CC(=O)N1CCC[C@]12CC=CCCCC1(CCCC=CCCCOC(=O)N3CC[C@@]4(C3)NC(=O)[C@H](CCCCNC(=O)CC[C@@H](C(=O)N[C@@H](C)C(N)=O)NC(=O)[C@H](Cc3csc5ccccc35)NC(=O)[C@H](Cc3ccccc3C(F)(F)F)NC4=O)NC(=O)[C@H](Cc3ccccc3)NC(=O)[C@H](C)NC(=O)C(C)(C)NC(=O)[C@H]([C@@H](C)O)NC(=O)[C@H](CC(=O)O)NC1=O)NC(=O)[C@H](CC(C)(C)C)NC(=O)[C@H](CC(=O)O)NC2=O (relative stereo) [I-200, Ac-PL3-Asp-Npg-B5-Asp-Thr-Aib-Ala-Phe-Lys*3-PyrS2-2F3MeF-BztA-GlnR*3-Ala-NH2]
50 to 200 nM | 3 to 10 µM | CC(=O)N1CCC[C@]12CC=CCCCC1(CCCC=CCCCOC(=O)N3CC[C@@]4(C3)NC(=O)[C@H](CCCCNC(=O)CC[C@@H](C(=O)N[C@@H](C)C(N)=O)NC(=O)[C@H](Cc3csc5ccccc35)NC(=O)[C@H](Cc3ccccc3C(F)(F)F)NC4=O)NC(=O)[C@H](Cc3ccccc3)NC(=O)[C@H](C)NC(=O)C(C)(C)NC(=O)[C@H](CCC(N)=O)NC(=O)[C@H](CC(=O)O)NC1=O)NC(=O)[C@H](CC(C)(C)C)NC(=O)[C@H](CC(=O)O)NC2=O (relative stereo) [I-201, Ac-PL3-Asp-Npg-B5-Asp-Gln-Aib-Ala-Phe-Lys*3-PyrS2-2F3MeF-BztA-GlnR*3-Ala-NH2]
< 50 nM | > 10 µM | CC(=O)N1CCC[C@]12CC=CCCCC1(CCCC=CCCCOC(=O)N3CC[C@@]4(C3)NC(=O)[C@H](CCCCNC(=O)CC[C@@H](C(=O)N[C@@H](C)C(N)=O)NC(=O)[C@H](Cc3csc5ccccc35)NC(=O)[C@H](Cc3ccccc3C(F)(F)F)NC4=O)NC(=O)[C@H](Cc3ccccc3)NC(=O)[C@H](C)NC(=O)C(C)(C)NC(=O)[C@H](Cc3c[nH]cn3)NC(=O)[C@H](CC(=O)O)NC1=O)NC(=O)[C@H](CC(C)(C)C)NC(=O)[C@H](CC(=O)O)NC2=O (relative stereo) [I-202, Ac-PL3-Asp-Npg-B5-Asp-His-Aib-Ala-Phe-Lys*3-PyrS2-2F3MeF-BztA-GlnR*3-Ala-NH2]
> 1000 nM | > 10 µM | CC(=O)N1CCC[C@]12CC=CCCCC1(CCCC=CCCCOC(=O)N3CC[C@@]4(C3)NC(=O)[C@H](CCCCNC(=O)CC[C@@H](C(=O)N[C@@H](C)C(N)=O)NC(=O)[C@H](Cc3csc5ccccc35)NC(=O)[C@H](Cc3ccccc3C(F)(F)F)NC4=O)NC(=O)[C@H](Cc3ccccc3)NC(=O)[C@H](C)NC(=O)C(C)(C)NC(=O)[C@H](Cc3ccc(O)cc3)NC(=O)[C@H](CC(=O)O)NC1=O)NC(=O)[C@H](CC(C)(C)C)NC(=O)[C@H](CC(=O)O)NC2=O (relative stereo) [I-203, Ac-PL3-Asp-Npg-B5-Asp-Tyr-Aib-Ala-Phe-Lys*3-PyrS2-2F3MeF-BztA-GlnR*3-Ala-NH2]
< 50 nM | 3 to 10 µM | CC(=O)N1CCC[C@]12CC=CCCCC1(CCCC=CCCCOC(=O)N3CC[C@@]4(C3)NC(=O)[C@H](CCCCNC(=O)CC[C@@H](C(=O)N[C@@H](C)C(N)=O)NC(=O)[C@H](Cc3csc5ccccc35)NC(=O)[C@H](Cc3ccccc3C(F)(F)F)NC4=O)NC(=O)[C@H](Cc3ccccc3)NC(=O)[C@H](C)NC(=O)C(C)(C)NC(=O)[C@H](Cc3cc(C(F)(F)F)ccc3C(=O)O)NC(=O)[C@H](CC(=O)O)NC1=O)NC(=O)[C@H](CC(C)(C)C)NC(=O)[C@H](CC(=O)O)NC2=O (relative stereo) [I-204, Ac-PL3-Asp-Npg-B5-Asp-5F3Me2COOHF-Aib-Ala-Phe-Lys*3-PyrS2-2F3MeF-BztA-GlnR*3-Ala-NH2]
< 50 nM | 3 to 10 µM | CC(=O)N1CCC[C@]12CC=CCCCC1(CCCC=CCCCOC(=O)N3CC[C@@]4(C3)NC(=O)[C@H](CCCCNC(=O)CC[C@@H](C(=O)N[C@@H](C)C(N)=O)NC(=O)[C@H](Cc3csc5ccccc35)NC(=O)[C@H](Cc3ccccc3C(F)(F)F)NC4=O)NC(=O)[C@H](Cc3ccccc3)NC(=O)[C@H](C)NC(=O)C(C)(C)NC(=O)[C@H](Cc3cccc(F)c3C(=O)O)NC(=O)[C@H](CC(=O)O)NC1=O)NC(=O)[C@H](CC(C)(C)C)NC(=O)[C@H](CC(=O)O)NC2=O (relative stereo) [I-208, Ac-PL3-Asp-Npg-B5-Asp-3F2COOHF-Aib-Ala-Phe-Lys*3-PyrS2-2F3MeF-BztA-GlnR*3-Ala-NH2]
> 1000 nM | > 10 µM | CC(=O)N1CCC[C@]12CC=CCCCC1(CCCC=CCCCOC(=O)N3CC[C@@]4(C3)NC(=O)[C@H](CCCCNC(=O)CC[C@@H](C(=O)N[C@@H](C)C(N)=O)NC(=O)[C@H](Cc3csc5ccccc35)NC(=O)[C@H](Cc3ccccc3C(F)(F)F)NC4=O)NC(=O)[C@H](Cc3ccccc3)NC(=O)[C@H](C)NC(=O)C(C)(C)NC(=O)[C@H](C(C)C)NC(=O)[C@H](CC(=O)O)NC1=O)NC(=O)[C@H](CC(C)(C)C)NC(=O)[C@H](CC(=O)O)NC2=O (relative stereo) [I-209, Ac-PL3-Asp-Npg-B5-Asp-Val-Aib-Ala-Phe-Lys*3-PyrS2-2F3MeF-BztA-GlnR*3-Ala-NH2]
50 to 200 nM | 3 to 10 µM | CC(=O)N1CCC[C@]12CC=CCCCC1(CCCC=CCCCOC(=O)N3CC[C@@]4(C3)NC(=O)[C@H](CCCCNC(=O)CC[C@@H](C(=O)N[C@@H](C)C(N)=O)NC(=O)[C@H](Cc3csc5ccccc35)NC(=O)[C@H](Cc3ccccc3C(F)(F)F)NC4=O)NC(=O)[C@H](Cc3ccccc3)NC(=O)[C@H](C)NC(=O)C(C)(C)NC(=O)[C@H](CO)NC(=O)[C@H](CC(=O)O)NC1=O)NC(=O)[C@H](CC(C)(C)C)NC(=O)[C@H](CC(=O)O)NC2=O (relative stereo) [I-210, Ac-PL3-Asp-Npg-B5-Asp-Ser-Aib-Ala-Phe-Lys*3-PyrS2-2F3MeF-BztA-GlnR*3-Ala-NH2]
200 to 750 nM | > 10 µM | CC(=O)N1CCC[C@]12CC=CCCCC1(CCCC=CCCCOC(=O)N3CC[C@@]4(C3)NC(=O)[C@H](CCCCNC(=O)CC[C@@H](C(=O)N[C@@H](C)C(N)=O)NC(=O)[C@H](Cc3csc5ccccc35)NC(=O)[C@H](Cc3ccccc3C(F)(F)F)NC4=O)NC(=O)[C@H](Cc3ccccc3)NC(=O)[C@H](C)NC(=O)C(C)(C)NC(=O)[C@H](Cc3c[nH]c4ccccc34)NC(=O)[C@H](CC(=O)O)NC1=O)NC(=O)[C@H](CC(C)(C)C)NC(=O)[C@H](CC(=O)O)NC2=O (relative stereo) [I-211, Ac-PL3-Asp-Npg-B5-Asp-Trp-Aib-Ala-Phe-Lys*3-PyrS2-2F3MeF-BztA-GlnR*3-Ala-NH2]
< 50 nM | 3 to 10 µM | CC(=O)N1CCC[C@]12CC=CCCCC1(CCCC=CCCCOC(=O)N3CC[C@@]4(C3)NC(=O)[C@H](CCCCNC(=O)CC[C@@H](C(=O)N[C@@H](C)C(N)=O)NC(=O)[C@H](Cc3csc5ccccc35)NC(=O)[C@H](Cc3ccccc3C(F)(F)F)NC4=O)NC(=O)[C@H](Cc3ccccc3)NC(=O)[C@H](C)NC(=O)C(C)(C)NC(=O)[C@H](CC(N)=O)NC(=O)[C@H](CC(=O)O)NC1=O)NC(=O)[C@H](CC(C)(C)C)NC(=O)[C@H](CC(=O)O)NC2=O (relative stereo) [I-212, Ac-PL3-Asp-Npg-B5-Asp-Asn-Aib-Ala-Phe-Lys*3-PyrS2-2F3MeF-BztA-GlnR*3-Ala-NH2]
50 to 200 nM | 3 to 10 µM | CC(=O)N1CCC[C@]12CC=CCCCC1(CCCC=CCCCOC(=O)N3CC[C@@]4(C3)NC(=O)[C@H](CCCCNC(=O)CC[C@@H](C(=O)N[C@@H](C)C(N)=O)NC(=O)[C@H](Cc3csc5ccccc35)NC(=O)[C@H](Cc3ccccc3C(F)(F)F)NC4=O)NC(=O)[C@H](Cc3ccccc3)NC(=O)[C@H](C)NC(=O)C(C)(C)NC(=O)[C@H](C)NC(=O)[C@H](CC(=O)O)NC1=O)NC(=O)[C@H](CC(C)(C)C)NC(=O)[C@H](CC(=O)O)NC2=O (relative stereo) [I-213, Ac-PL3-Asp-Npg-B5-Asp-Ala-Aib-Ala-Phe-Lys*3-PyrS2-2F3MeF-BztA-GlnR*3-Ala-NH2]
50 to 200 nM | > 10 µM | CC(=O)N1CCC[C@]12CC=CCCCC1(CCCC=CCCCOC(=O)N3CC[C@@]4(C3)NC(=O)[C@H](CCCCNC(=O)CC[C@@H](C(=O)N[C@@H](C)C(N)=O)NC(=O)[C@H](Cc3csc5ccccc35)NC(=O)[C@H](Cc3ccccc3C(F)(F)F)NC4=O)NC(=O)[C@H](Cc3ccccc3)NC(=O)[C@H](C)NC(=O)C(C)(C)NC(=O)[C@H](CCCNC(=N)N)NC(=O)[C@H](CC(=O)O)NC1=O)NC(=O)[C@H](CC(C)(C)C)NC(=O)[C@H](CC(=O)O)NC2=O (relative stereo) [I-214, Ac-PL3-Asp-Npg-B5-Asp-Arg-Aib-Ala-Phe-Lys*3-PyrS2-2F3MeF-BztA-GlnR*3-Ala-NH2]
50 to 200 nM | 3 to 10 µM | CC(=O)N1CCC[C@]12CC=CCCCC1(CCCC=CCCCOC(=O)N3CC[C@@]4(C3)NC(=O)[C@H](CCCCNC(=O)CC[C@@H](C(=O)N[C@@H](C)C(N)=O)NC(=O)[C@H](Cc3csc5ccccc35)NC(=O)[C@H](Cc3ccccc3C(F)(F)F)NC4=O)NC(=O)[C@H](Cc3ccccc3)NC(=O)[C@H](C)NC(=O)C(C)(C)NC(=O)[C@H]([C@H](C)O)NC(=O)[C@H](CC(=O)O)NC1=O)NC(=O)[C@H](CC(C)(C)C)NC(=O)[C@H](CC(=O)O)NC2=O (relative stereo) [I-216, Ac-PL3-Asp-Npg-B5-Asp-aThr-Aib-Ala-Phe-Lys*3-PyrS2-2F3MeF-BztA-GlnR*3-Ala-NH2]
